{"sequences": {"note": "Protein sequences, listed by entry. Tags and fused reporters are not part of them. Residues count along the entry.", "UniProt O43683, 704-1085": "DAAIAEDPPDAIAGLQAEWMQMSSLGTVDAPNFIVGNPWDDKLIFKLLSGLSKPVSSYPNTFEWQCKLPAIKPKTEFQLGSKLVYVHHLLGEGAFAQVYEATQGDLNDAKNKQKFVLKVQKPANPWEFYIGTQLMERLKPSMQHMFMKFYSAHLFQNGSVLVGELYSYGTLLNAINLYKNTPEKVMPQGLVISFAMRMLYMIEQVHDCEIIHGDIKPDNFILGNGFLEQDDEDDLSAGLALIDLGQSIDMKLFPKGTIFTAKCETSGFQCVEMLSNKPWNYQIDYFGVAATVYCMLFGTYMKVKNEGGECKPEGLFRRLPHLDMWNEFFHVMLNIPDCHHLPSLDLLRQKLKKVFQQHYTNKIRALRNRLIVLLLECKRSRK"}, "source": "patent US20240307362A1", "about": "(priority 2019, published 2024)", "data": [{"molecular_target": "human Bub1 (Homo sapiens (Human), UniProt O43683)", "assay": "Bub1 high ATP kinase assay (TR-FRET)", "type": "biochemical", "conditions": "read-out: Bub1 high ATP (2 mM) IC50; 2 mM ATP", "description": "Bub1-inhibitory activity of compounds of the present invention at a high ATP concentration was quantified employing the Bub1 TR-FRET high ATP kinase assay as described in the following paragraphs.\nN-terminally His6-tagged recombinant catalytic domain of human Bub1 (amino acids 704-1085), expressed in insect cells (Hi5) and purified by Ni-NTA affinity chromatography and subsequent size exclusion chromatography, was used as enzyme.", "units": {"IC50": "µM"}, "values": [{"smiles": "COc1c(Cl)cccc1Nc1c(-c2ccncc2OC[C@@H]2CCN2C)[nH]c2c1C(=O)NCC2", "note": "[Example 27, 3-(3-chloro-2-methoxyanilino)-2-(3-{[(2S)-1-methylazetidin-2-yl]methoxy}pyridin-4-yl)-1,5,6,7-tetrahydro-4H-pyrrolo[3,2-c]pyridin-4-one]", "IC50": 12.3}, {"smiles": "CCN1CC[C@H]1COc1cnccc1-c1[nH]c2c(c1Nc1cccc(Cl)c1OC)C(=O)NCC2", "note": "[Example 28, 3-(3-chloro-2-methoxyanilino)-2-(3-{[(2S)-1-ethylazetidin-2-yl]methoxy}pyridin-4-yl)-1,5,6,7-tetrahydro-4H-pyrrolo[3,2-c]pyridin-4-one]", "IC50": "> 20"}, {"smiles": "COc1c(Cl)cccc1Nc1c(-c2ccncc2OC[C@@H]2CCN2CC(F)(F)F)[nH]c2c1C(=O)NCC2", "note": "[Example 29, 3-(3-chloro-2-methoxyanilino)-2-(3-{[(2S)-1-(2,2,2-trifluoroethyl)azetidin-2-yl]methoxy}pyridin-4-yl)-1,5,6,7-tetrahydro-4H-pyrrolo[3,2-c]pyridin-4-one]", "IC50": "> 20"}, {"smiles": "COc1c(Cl)cccc1Nc1c(-c2ccncc2OC[C@H]2CCN2CC(F)(F)F)[nH]c2c1C(=O)NCC2", "note": "[Example 30, 3-(3-chloro-2-methoxyanilino)-2-(3-{[(2R)-1-(2,2,2-trifluoroethyl)azetidin-2-yl]methoxy}pyridin-4-yl)-1,5,6,7-tetrahydro-4H-pyrrolo[3,2-c]pyridin-4-one]", "IC50": "> 20"}, {"smiles": "COc1c(F)cccc1Nc1c(-c2ccncc2OC[C@H]2CCN2C)[nH]c2c1C(=O)NCC2", "note": "[Example 79, 3-(3-fluoro-2-methoxyanilino)-2-(3-{[(2R)-1-methylazetidin-2-yl]methoxy}pyridin-4-yl)-1,5,6,7-tetrahydro-4H-pyrrolo[3,2-c]pyridin-4-one]", "IC50": "> 20"}]}]}
